pIC50: −log10 of the molar value.
Key:
CXCR1 receptor = CXCR1 receptor (Homo sapiens (Human), UniProt P25024); assay: β-arrestin recruitment test, U2OS hCXCR1 β-arrestin cells stimulated with CXCL8; type: cell-based; details: inhibition of CXCL8 (10 nM) induced β-arrestin 2 recruitment; *9999 signifies not active
Experimental: (§1) The in vitro affinity of the compounds of the present invention for the CXCR1 and CXCR2 receptors was determined on a functional test of the β-arrestin recruitment after receptor activation type.
(§2) In order to evaluate the direct interaction of the CXCR2 or CXCR1 receptor with β-arrestin 2, a β-arrestin 2 recruitment test for CXCR2 or CXCR1 based on β-galactosidase enzyme complementation (Olson K R, Eglen R M. Beta galactosidase complementation: a cell-based luminescent assay platform for drug discovery. Assay Drug Dev Technol. 2007 February; 5(1); 137-44), as established by DiscoveRx Corporation was used. The stimulation of these two cell lines with CXCL8 (10 nM) induces β-arrestin 2 recruitment, as indicated by a significant increase in the induction factor.
(§3) β-Arrestin recruitment test: “PathHunter HEK293-CXCR2” or “U2OS hCXCR1 β-arrestin” cells (DiscoveRx Corporation) were seeded overnight at 10 000 cells/well (384-well format) in 20 μl of Opti MEM I medium. A preincubation with the antagonist or the vehicle for 30 min at 37° C. and 5% CO2 was followed by 60 minutes of stimulation with CXCL8 at 37° C. and 5% CO2. The cells were then placed at ambient temperature for 30 minutes. The PathHunter detection reagent (DiscoveRx Corporation) was added. After incubation for 60 min at ambient temperature, the β-galactosidase induced by the luminescence during the β-arrestin-CXCR2 interaction was measured for 0.3 s in an Envision 2102 Multilabel Reader (PerkinElmer Life and Analytical Sciences). The data were analyzed by means of a non-linear curve procedure using the XLFit4 exploitation software (IDBS) and the IC50 values were determined.

The chains behind the UniProt entries cited, without tags or fusion partners. Where a name states a change or a piece, a line headed by the entry shows the natural chain unless it says otherwise. Residues count along the entry.
UniProt P25024, whole entry: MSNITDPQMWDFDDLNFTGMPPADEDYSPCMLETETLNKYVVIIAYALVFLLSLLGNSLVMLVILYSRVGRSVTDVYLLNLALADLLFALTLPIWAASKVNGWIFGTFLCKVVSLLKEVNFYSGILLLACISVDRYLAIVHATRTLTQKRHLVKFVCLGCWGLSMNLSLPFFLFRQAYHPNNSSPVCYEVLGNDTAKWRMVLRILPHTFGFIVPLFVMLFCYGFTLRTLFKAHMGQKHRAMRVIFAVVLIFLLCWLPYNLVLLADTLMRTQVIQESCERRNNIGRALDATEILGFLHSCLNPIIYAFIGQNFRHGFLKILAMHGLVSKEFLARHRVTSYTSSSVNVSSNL
UniProt P32248, 25-378: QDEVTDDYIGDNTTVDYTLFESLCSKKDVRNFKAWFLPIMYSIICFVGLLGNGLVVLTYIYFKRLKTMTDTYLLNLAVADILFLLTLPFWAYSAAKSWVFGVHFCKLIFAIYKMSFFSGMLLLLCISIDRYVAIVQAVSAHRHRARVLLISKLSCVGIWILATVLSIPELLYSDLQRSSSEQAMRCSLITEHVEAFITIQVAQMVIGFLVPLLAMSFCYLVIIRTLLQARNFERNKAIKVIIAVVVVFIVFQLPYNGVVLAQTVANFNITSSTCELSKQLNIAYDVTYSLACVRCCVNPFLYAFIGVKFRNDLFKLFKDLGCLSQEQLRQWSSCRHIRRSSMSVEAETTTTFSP
UniProt P51679: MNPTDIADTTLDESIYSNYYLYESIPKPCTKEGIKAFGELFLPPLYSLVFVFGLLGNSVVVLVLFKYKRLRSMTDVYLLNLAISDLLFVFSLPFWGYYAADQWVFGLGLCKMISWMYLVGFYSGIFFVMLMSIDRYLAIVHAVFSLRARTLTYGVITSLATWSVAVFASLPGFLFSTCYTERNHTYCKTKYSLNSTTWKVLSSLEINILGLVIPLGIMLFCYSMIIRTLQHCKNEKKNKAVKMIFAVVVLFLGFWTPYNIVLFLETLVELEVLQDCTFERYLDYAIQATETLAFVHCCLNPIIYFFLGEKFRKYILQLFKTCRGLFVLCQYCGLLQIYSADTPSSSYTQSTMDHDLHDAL
UniProt P49682: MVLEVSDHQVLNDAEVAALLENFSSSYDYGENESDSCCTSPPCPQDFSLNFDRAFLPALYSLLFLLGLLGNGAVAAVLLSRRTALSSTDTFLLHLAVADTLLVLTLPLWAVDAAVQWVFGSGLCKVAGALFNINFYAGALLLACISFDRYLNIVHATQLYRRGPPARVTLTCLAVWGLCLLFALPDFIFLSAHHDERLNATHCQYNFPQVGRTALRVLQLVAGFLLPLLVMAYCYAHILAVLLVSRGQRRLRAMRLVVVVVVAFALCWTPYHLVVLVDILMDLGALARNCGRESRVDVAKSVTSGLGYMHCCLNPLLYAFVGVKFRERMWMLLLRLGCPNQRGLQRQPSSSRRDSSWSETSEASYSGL
UniProt P25025, whole entry: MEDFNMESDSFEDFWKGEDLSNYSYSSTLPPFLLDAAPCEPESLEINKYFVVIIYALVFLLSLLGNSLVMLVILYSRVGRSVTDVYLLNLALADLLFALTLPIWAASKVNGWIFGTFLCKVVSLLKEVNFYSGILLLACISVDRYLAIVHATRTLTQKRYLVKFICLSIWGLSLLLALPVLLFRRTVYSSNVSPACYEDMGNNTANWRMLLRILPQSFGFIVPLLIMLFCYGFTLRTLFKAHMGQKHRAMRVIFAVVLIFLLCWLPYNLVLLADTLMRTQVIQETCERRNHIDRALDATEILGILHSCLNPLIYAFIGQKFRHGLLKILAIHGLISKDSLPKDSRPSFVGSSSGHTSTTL

CCR7 = CCR7 (Homo sapiens (Human), UniProt P32248); assay: Calcium flux on Chem-1 cells expressing the chemokine receptor (FLIPR TETRA), antagonist mode; type: cell-based; details: antagonist activity, reference agonist at AC80
CCR4 = CCR4 (Homo sapiens (Human), UniProt P51679); assay: as above; details: IC50 CCR4, antagonist activity, reference agonist at AC80
CXCR3 = CXCR3 (Homo sapiens (Human), UniProt P49682); assay: as above; details: IC50 CXCR3, antagonist activity, reference agonist at AC80
CXCR2 receptor = CXCR2 receptor (Homo sapiens (Human), UniProt P25025); assay: β-arrestin recruitment test, PathHunter HEK293-CXCR2 cells stimulated with CXCL8; type: cell-based; details: inhibition of CXCL8 (10 nM) induced β-arrestin 2 recruitment; *9999 signifies not active
Experimental: as §1, §2, §3

IC50 (CXCR1 receptor) [nM] | Structure (SMILES) | IC50 (CXCR2 receptor) [nM] | also measured
692 | Cc1ccc(C(Nc2c(Nc3cccc(C(=O)N(C)C)c3O)c(=O)c2=O)C2CCCS2)o1 (single isomer, unassigned) [Example 2 (Enantiomer 2 of diastereoisomer 1), 2-Hydroxy-N,N-dimethyl-3-(2-{[(5-methylfuran-2-yl)-(tetrahydrothiophen-2-yl)methyl]amino}-3,4-dioxo-cyclobut-1-enylamino)benzamide] |  | 
1560 | Cc1ccc(C(Nc2c(Nc3cccc(C(=O)N(C)C)c3O)c(=O)c2=O)C2CCCS2)o1 (single isomer, unassigned) [Example 2 (Enantiomer 2 of diastereoisomer 2), 2-Hydroxy-N,N-dimethyl-3-(2-{[(5-methylfuran-2-yl)-(tetrahydrothiophen-2-yl)methyl]amino}-3,4-dioxo-cyclobut-1-enylamino)benzamide] |  | 
661 | Cc1ccc(C(Nc2c(Nc3cccc(C(=O)N(C)C)c3O)c(=O)c2=O)C2CCCS2)o1 (single isomer, unassigned) [Example 2 (diastereoisomer 1), 2-Hydroxy-N,N-dimethyl-3-(2-{[(5-methylfuran-2-yl)-(tetrahydrothiophen-2-yl)methyl]amino}-3,4-dioxo-cyclobut-1-enylamino)benzamide] |  | 
552 | COC(=O)[C@@H]1CCCN1C(=O)c1cccc(Nc2c(NC(c3ccc(C)o3)C3CCCS3)c(=O)c2=O)c1F (single isomer, unassigned) [Example 3 (Enantiomer 1)] | 195 | 
8910 | COC(=O)[C@@H]1CCCN1C(=O)c1cccc(Nc2c(NC(c3ccc(C)o3)C3CCCS3)c(=O)c2=O)c1F (single isomer, unassigned) [Example 3 (Enantiomer 2)] |  | 
3810 | COC(=O)[C@@H]1CCCN1C(=O)c1cccc(Nc2c(NC(c3ccc(C)o3)C3CCCS3)c(=O)c2=O)c1F (single isomer, unassigned) [Example 15] | 294 | 

The remaining lines, values behind:

Structure (SMILES) | IC50 (CXCR1 receptor) [nM] | IC50 (CXCR2 receptor) [nM] | also measured
Cc1ccc(C(Nc2c(Nc3cccc(C(=O)N(C)C)c3O)c(=O)c2=O)C2CCCS2)o1 (single isomer, unassigned) [2 (diastereoisomer 2), 2-Hydroxy-N,N-dimethyl-3-(2-{[(5-methylfuran-2-yl)-(tetrahydrothiophen-2-yl)methyl]amino}-3,4-dioxo-cyclobut-1-enylamino)benzamide] | 44 |  | pIC50 (CCR7): 5.82; pIC50 (CCR4): 7.28; pIC50 (CXCR3): 5.77; pIC50 (CXCR3; value of the text): 5.77
Cc1ccc(C(Nc2c(Nc3cccc(C(=O)N(C)C)c3O)c(=O)c2=O)C2(C)CCCO2)o1 (single isomer, unassigned) [Example 1 (Enantiomer 1 of diastereoisomer 2), 2-Hydroxy-N,N-dimethyl-3-(2-{[(5-methylfuran-2-yl)-(2-methyltetrahydrofuran-2-yl)methyl]amino}-3,4-dioxo-cyclobut-1-enylamino)benzamide] | 10000 |  | 
Cc1ccc(C(Nc2c(Nc3cccc(C(=O)N(C)C)c3O)c(=O)c2=O)C2CCCS2)o1 (single isomer, unassigned) [Example 2 (Enantiomer 1 of diastereoisomer 1), 2-Hydroxy-N,N-dimethyl-3-(2-{[(5-methylfuran-2-yl)-(tetrahydrothiophen-2-yl)methyl]amino}-3,4-dioxo-cyclobut-1-enylamino)benzamide] | 4550 |  | 
Cc1ccc(C(Nc2c(Nc3cccc(C(=O)N(C)C)c3O)c(=O)c2=O)C2CCCS2)o1 (single isomer, unassigned) [Example 2 (Enantiomer 1 of diastereoisomer 2), 2-Hydroxy-N,N-dimethyl-3-(2-{[(5-methylfuran-2-yl)-(tetrahydrothiophen-2-yl)methyl]amino}-3,4-dioxo-cyclobut-1-enylamino)benzamide] | 77 |  | 
COC(=O)[C@H]1CCCN1C(=O)c1cccc(Nc2c(NC(c3ccc(C)o3)C3CCCS3)c(=O)c2=O)c1O (single isomer, unassigned) [Example 6] | 108 | 30 | 
COC(=O)[C@H]1CCCN1C(=O)c1cccc(Nc2c(NC(c3ccc(C)o3)C3CCCS3)c(=O)c2=O)c1O (single isomer, unassigned) [Example 20] | 43 | 21 | 
